For data set [1], the target named is Mu-type opioid receptor (Homo sapiens, UniProt P35372). Briefly: Binding affinity to human cloned mu opioid receptor expressed in CHO cells by radioligand displacement assay.
Data set [2] has as its target Kappa-type opioid receptor (Homo sapiens, UniProt P41145). Briefly: Binding affinity to human cloned kappa opioid receptor expressed in HEK293 cells by radioligand displacement assay.
Data set [3] addresses Delta-type opioid receptor (Homo sapiens, UniProt P41143). Kind of data set: Binding affinity to human cloned delta opioid receptor expressed in CHO cells by radioligand displacement assay.
Data set [4] relates to Blood. Briefly: Metabolic stability in Sprague-Dawley rat blood assessed as intact compound level at 40 to 80 MBq, iv after 5 mins by radio-TLC analysis. To be noted: strain Sprague-Dawley.
Data set [5] concerns Serum. Kind of data set: Drug uptake in Sprague-Dawley rat serum at 40 to 80 MBq, iv after 5 mins. To be noted: in vivo, strain Sprague-Dawley.
The subject of data set [6] is Blood. Briefly: Metabolic stability in Sprague-Dawley rat blood assessed as intact compound level at 40 to 80 MBq, iv after 40 mins by radio-TLC analysis. To be noted: strain Sprague-Dawley.
The subject of data set [7] is Brain. Briefly: Metabolic stability in Sprague-Dawley rat brain assessed as intact compound level at 40 to 80 MBq, iv after 20 mins by radio-TLC analysis. To be noted: in vivo, strain Sprague-Dawley.
Data set [8] deals with Brain. Briefly: Metabolic stability in Sprague-Dawley rat brain assessed as remaining compound level at 40 to 80 MBq, iv after 5 mins. To be noted: in vivo, strain Sprague-Dawley.
For data set [9], the system named is Brain. Kind of data set: Metabolic stability in Sprague-Dawley rat brain assessed as remaining compound level at 40 to 80 MBq, iv after 40 mins. To be noted: in vivo, strain Sprague-Dawley.
For data set [10], the system named is Cerebellum. Briefly: Ratio of SUV of drug uptake in Sprague-Dawley basal ganglia to cerebellum at 8 to 68 GBq/umol, iv up to 85 mins by PET analysis. To be noted: rat, in vivo, strain Sprague-Dawley.
In data set [11] the test system is Serum. Briefly: Drug uptake in Sprague-Dawley rat serum at 8 to 10 MBq after 5 mins. To be noted: strain Sprague-Dawley.
In data set [12] the test system is Serum. Briefly: Drug uptake in Sprague-Dawley rat serum at 40 to 80 MBq, iv after 40 mins. To be noted: in vivo, strain Sprague-Dawley.
The subject of data set [13] is Brain. Briefly: Metabolic stability in Sprague-Dawley rat brain assessed as intact compound level at 40 to 80 MBq, iv after 5 mins by radio-TLC analysis. To be noted: in vivo, strain Sprague-Dawley.
The nature of data set [14]: Binding affinity to Sprague-Dawley rat serum protein at 40 to 80 MBq, iv after 40 mins. To be noted: strain Sprague-Dawley.
The test system of data set [15] is Brain. Kind of data set: Metabolic stability in Sprague-Dawley rat brain assessed as intact compound level at 40 to 80 MBq, iv after 40 mins by radio-TLC analysis. To be noted: in vivo, strain Sprague-Dawley.
The subject of data set [16] is Brain. Kind of data set: Metabolic stability in Sprague-Dawley rat brain assessed as remaining compound level at 40 to 80 MBq, iv after 20 mins. To be noted: in vivo, strain Sprague-Dawley.
In data set [17] the test system is Blood. Kind of data set: Metabolic stability in Sprague-Dawley rat blood assessed as intact compound level at 40 to 80 MBq, iv after 20 mins by radio-TLC analysis. To be noted: strain Sprague-Dawley.

Amino acid sequences for entries named in this document (tags omitted).
UniProt P35372, whole entry: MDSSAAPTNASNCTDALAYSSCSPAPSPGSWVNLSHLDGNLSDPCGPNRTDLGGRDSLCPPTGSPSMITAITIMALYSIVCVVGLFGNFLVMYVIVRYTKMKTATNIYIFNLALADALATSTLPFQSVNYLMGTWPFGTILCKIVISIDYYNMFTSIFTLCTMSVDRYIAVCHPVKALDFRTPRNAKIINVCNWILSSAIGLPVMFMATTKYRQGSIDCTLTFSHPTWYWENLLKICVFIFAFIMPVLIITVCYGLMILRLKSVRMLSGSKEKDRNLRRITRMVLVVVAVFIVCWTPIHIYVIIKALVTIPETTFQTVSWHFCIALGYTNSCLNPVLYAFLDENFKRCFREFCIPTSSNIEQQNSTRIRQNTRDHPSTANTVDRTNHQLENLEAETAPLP
UniProt P41145, whole entry: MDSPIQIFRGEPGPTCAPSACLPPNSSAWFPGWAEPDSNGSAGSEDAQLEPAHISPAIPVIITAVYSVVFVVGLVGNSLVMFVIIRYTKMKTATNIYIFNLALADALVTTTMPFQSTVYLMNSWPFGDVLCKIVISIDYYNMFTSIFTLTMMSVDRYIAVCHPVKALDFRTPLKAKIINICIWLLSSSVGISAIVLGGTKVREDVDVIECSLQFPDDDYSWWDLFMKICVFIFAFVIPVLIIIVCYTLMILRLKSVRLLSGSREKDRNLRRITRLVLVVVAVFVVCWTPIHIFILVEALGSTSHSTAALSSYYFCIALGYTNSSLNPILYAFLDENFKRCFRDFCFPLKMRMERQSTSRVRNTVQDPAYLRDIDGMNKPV
UniProt P41143, whole entry: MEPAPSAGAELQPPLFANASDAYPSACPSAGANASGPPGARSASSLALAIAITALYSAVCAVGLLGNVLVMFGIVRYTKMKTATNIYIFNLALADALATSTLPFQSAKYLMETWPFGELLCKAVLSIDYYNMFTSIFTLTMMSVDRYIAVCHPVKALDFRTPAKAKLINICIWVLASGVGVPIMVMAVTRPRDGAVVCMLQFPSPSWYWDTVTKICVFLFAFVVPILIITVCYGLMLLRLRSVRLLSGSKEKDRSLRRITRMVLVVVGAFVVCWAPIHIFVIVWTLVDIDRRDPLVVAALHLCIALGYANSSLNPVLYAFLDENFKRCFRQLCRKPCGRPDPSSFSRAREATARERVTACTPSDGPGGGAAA

3 compounds from ChEMBL document CHEMBL3286325, “Synthesis and evaluation of three structurally related ¹⁸F-labeled orvinols of different intrinsic activities: 6-O-[¹⁸F]fluoroethyl-diprenorphine ([¹⁸F]FDPN), 6-O-[¹⁸F]fluoroethyl-buprenorphine ([¹⁸F]FBPN), and 6-O-[¹⁸F]fluoroethyl-phenethyl-orvinol ([¹⁸F]FPEO)” (2014) can be followed below.

Regarding `CC(C)(O)[C@H]1C[C@@]23CC[C@@]1(OCCF)[C@@H]1Oc4c(O)ccc5c4[C@@]12CCN(CC1CC1)[C@@H]3C5`, the Ki in data set [1] came out at 0.24 nM; in data set [2], 0.2 nM; in [3], 8 nM.
On to `CC(C)(C)[C@@](C)(O)[C@H]1C[C@@]23CC[C@]1(OCCF)[C@@H]1Oc4c(O)ccc5c4[C@@]12CCN(CC1CC1)[C@@H]3C5`, for which the Ki in data set [1] stood at 0.24 nM; in [2], 0.12 nM; in [3] it was 2.1 nM.
`CC(C)(C)[C@@](C)(O)[C@H]1C[C@@]23CC[C@]1(OCC[18F])[C@@H]1Oc4c(O)ccc5c4[C@@]12CCN(CC1CC1)[C@@H]3C5`: the Stability turned out to be 39.3% in [4]; 27.5% in data set [6]; 98% in [7]; 94% in data set [8]; 93% in [9]; 94.6% in data set [13]. Besides, the Stability in data set [15] came to 96.9%; in data set [16], 92%; in data set [17], 27.4%. For the same compound, the Drug uptake was 60% in [5], 16% in data set [11] and 50% in data set [12]. Further, in data set [10], the Ratio is 3.01. This compound also gave a PB in [14] of 11%.
